pIC50: −log10 of the molar value.
Tests used:
[1] = tested on: PFV intasome (integrase tetramer with viral DNA) (prototype foamy virus); assay: AlphaLISA competition; conditions: AlphaLISA: 50 mM BisTris-propane pH 7, 100 mM NaCl, 0.1% Tween-20, 0.1% BSA, 1 mM DTT, RT, 2 h; EMSA: 8% native PAGE after salt dialysis from 2 M NaCl …
[2] = target: human mononucleosome (MN) reconstituted on the biotinylated 601 Widom sequence (human) (UniProt P04908); assay: AlphaScreen or HTRF; AlphaLISA; biotinylated MN (0-50 nM) cross-titrated against DIG-intasome (0-100 nM), also 1 nM of each; 50 mM BisTris-propane pH 7, 100 mM NaCl, 0.1% Tween-20, 0.1% BSA, 1 mM DTT; RT; anti-DIG acceptor and streptavidin donor beads
[3] = target: human mononucleosome (MN) reconstituted on the biotinylated 601 Widom sequence (human) (UniProt P04908); assay: AlphaScreen or HTRF; AlphaLISA competition; increasing concentrations of untagged intasome titrated into the 1 nM DIG-intasome/biotinylated nucleosome interaction assay; apparent IC50

Substance | pIC50 [1] | AlphaLISA signal [2] | AlphaLISA signal (1 nM of each partner) [2] | pIC50 [3]
mononucleosome on 601 Widom | 7.57 |  |  | 
prototype foamy virus (PFV) intasome (complex) |  | > 1e+06 counts | > 1e+06 counts | 7.57
